Source: ChEMBL document CHEMBL1269007, “Synthesis and biological evaluation of Apogossypolone derivatives as pan-active inhibitors of antiapoptotic B-cell lymphoma/leukemia-2 (Bcl-2) family proteins” (J Med Chem, 2010)

Molecular target: T1, Bcl-2-related protein A1 (Homo sapiens, UniProt Q16548)
T1 sequence (Q16548 whole entry): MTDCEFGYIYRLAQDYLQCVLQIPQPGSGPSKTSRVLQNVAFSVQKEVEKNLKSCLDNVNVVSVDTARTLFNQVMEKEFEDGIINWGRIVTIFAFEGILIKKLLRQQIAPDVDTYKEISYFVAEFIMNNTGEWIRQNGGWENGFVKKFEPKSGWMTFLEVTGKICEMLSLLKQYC
Assay: Displacement of F-BakBH3 from Bfl-1 after 30 mins by fluorescence polarization assay

Question: `CC1=C(C2=C(C)C(=O)c3c(cc(O)c(O)c3CCc3ccc(C)cc3)C2=O)C(=O)c2cc(O)c(O)c(CCc3ccc(C)cc3)c2C1=O` was tested. Which IC50 did it give?
Answer: Its IC50 is 14.7 µM.

Question: And the Ki?
Answer: Its Ki is 9.33 µM.
